By UniProt entry, the sequences of proteins in these tests, tags left out. Residues count along the entry.
UniProt P09958, 108-714 limits assumed: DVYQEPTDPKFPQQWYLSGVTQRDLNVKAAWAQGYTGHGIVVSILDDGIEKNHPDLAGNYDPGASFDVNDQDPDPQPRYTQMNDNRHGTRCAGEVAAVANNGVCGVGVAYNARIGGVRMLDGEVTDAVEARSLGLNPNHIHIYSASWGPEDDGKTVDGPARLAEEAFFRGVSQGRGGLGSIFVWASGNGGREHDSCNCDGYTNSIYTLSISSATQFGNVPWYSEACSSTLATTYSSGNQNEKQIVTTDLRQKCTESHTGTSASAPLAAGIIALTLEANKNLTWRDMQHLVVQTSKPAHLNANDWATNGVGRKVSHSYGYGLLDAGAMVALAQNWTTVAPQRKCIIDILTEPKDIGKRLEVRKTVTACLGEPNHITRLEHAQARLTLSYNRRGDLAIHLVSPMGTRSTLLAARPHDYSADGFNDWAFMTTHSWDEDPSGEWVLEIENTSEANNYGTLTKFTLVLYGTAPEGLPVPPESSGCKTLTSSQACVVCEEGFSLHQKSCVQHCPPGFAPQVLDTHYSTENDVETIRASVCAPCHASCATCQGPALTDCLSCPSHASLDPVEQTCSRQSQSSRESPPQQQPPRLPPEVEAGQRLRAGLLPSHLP

The entries are a selection whose mix differs from that of the whole data set. Activity calls are given as the source filed them. Rule as the data show it: active = inhibition above about 25%; inactive = the rest.
What follows are compounds tested against Furin (Homo sapiens) (UniProt P09958) (assay: furin protease activity blockers – biochemical, fluorescence intensity, primary screen (AID 463115)). Settings: purified furin, fluorogenic substrate cleavage, active compounds read high; at 30 µM unless noted.
In the case of `Cc1ccc(OCC(C)C)c(CN(CCCl)CCCl)c1`, the inhibition is reported as inactive: -21.4%. With `COc1ccc(NC2CCN(CCc3ccccc3)CC2)c(OC)c1` the inhibition was inactive: -25.9%. With `CCOc1ccc(C)cc1CN(CCCl)CCCl` the inhibition was inactive: -27.9%. For `CCOC(=O)N1CCC(Nc2ccc(OC)cc2)CC1`, the inhibition was inactive: -21.2%. In the case of `O=C(OC1CN2CCC1CC2)C1c2ccccc2Oc2ccccc21` (centres undefined), the inhibition is reported as inactive: -11.3%. `N#CC1(Nc2ccccc2)CCN(Cc2ccccc2)CC1` was tested, and the inhibition was inactive: -24.3%. With `O=C(NCC1(N2CCOCC2)CCCCC1)c1cc2ccccc2o1` the inhibition was inactive: -12.9% [at 20 µM]. For `COc1ccc(C(=O)NCC2(N3CCCCC3)CCCCC2)c(OC)c1OC`, the inhibition was inactive: 3.82%. For `CN1CCC(Nc2cccc(F)c2)CC1`, the inhibition was inactive: -5.62% [at 20 µM]. In the case of `COc1ccc(CN(CCCl)CCCl)cc1Cl`, the inhibition is reported as inactive: -23%. With `CN(C)c1cccc(C(=O)NCC2(N3CCCCC3)CCCCC2)c1` the inhibition was inactive: -18.9%. With `CC(C)c1ccc(NC2CCN(C(=O)OC(C)(C)C)CC2)cc1` the inhibition was inactive: -6.82%. In the case of `CN1CCN(CCOC(=O)C(O)(c2ccccc2)c2ccccc2)CC1`, the inhibition is reported as inactive: 3.43%. For `COc1ccc(NC2CCN(C(=O)OC(C)(C)C)CC2)cc1`, the inhibition was inactive: -18.1%. In the case of `O=C(NCC1(N2CCOCC2)CCCCC1)c1cc(=O)[nH]c2ccccc12`, the inhibition is reported as inactive: -11.7% [at 20 µM]. In the case of `O=C(NCC1(N2CCCCC2)CCCCC1)c1cccc([N+](=O)[O-])c1`, the inhibition is reported as inactive: -32.3%. `N#CC1(Nc2ccccc2)CCN(CCc2ccccc2)CC1` was tested, and the inhibition was inactive: -14.9%. For `c1ccc(CN2CCC(Nc3ccccc3)CC2)cc1`, the inhibition was inactive: -18.1% [at 20 µM]. With `N#Cc1ccc(C(=O)NCC2(N3CCCCC3)CCCCC2)cc1` the inhibition was inactive: -15.4%. With `O=C(OC1CN2CCC1CC2)C1c2ccccc2C=Cc2ccccc21` (centres undefined) the inhibition was inactive: -5.42%. For `N/C(=N\O)c1c(N)no[n+]1[O-]`, the inhibition was inactive: -5.54%. With `COc1ccc(C(=O)NCC2(N3CCOCC3)CCCCC2)cc1OC` the inhibition was inactive: 7.14%. For `CCCOc1ccc(C)cc1CN(CCCl)CCCl`, the inhibition was inactive: -32.3%. `CCC(CO)(C(=O)OC1CN2CCC1CC2)c1ccccc1` (centres undefined) was tested, and the inhibition was inactive: -15.1%. With `COc1cc(OC)cc(C(=O)NCC2(N3CCOCC3)CCCCC2)c1` the inhibition was inactive: -19%. `CC(C)(C)OC(=O)N1CCC(Nc2ccccc2)CC1` was tested, and the inhibition was inactive: -19.4%. `CCOc1ncccc1C(=O)NCC1(N2CCOCC2)CCCCC1` was tested, and the inhibition was inactive: -6.36%. `CN(C)c1ccc(C(=O)NCC2(N3CCCCC3)CCCCC2)cc1` was tested, and the inhibition was inactive: -28.4%. In the case of `CCN1CCC(Nc2cccc(F)c2)CC1`, the inhibition is reported as inactive: -23.9%.

— PubChem BioAssay AID463115 (University of Pittsburgh Molecular Library Screening Center, 2010)
